Biological target: T1, human microsomal prostaglandin E2 synthase (mPGES)-1 (Homo sapiens, UniProt O14684)
T1 sequence (O14684 1-152): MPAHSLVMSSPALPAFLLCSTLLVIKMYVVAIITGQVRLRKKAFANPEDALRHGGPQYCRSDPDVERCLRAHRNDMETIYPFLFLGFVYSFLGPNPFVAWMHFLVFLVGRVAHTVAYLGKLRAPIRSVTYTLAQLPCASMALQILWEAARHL
Test: mPGES-1 activity in microsomal preparations of IL-1β-treated A549 cells
Settings: 10 µM; reference inhibitor

- suppression of PGE2 formation: 78.0 ± 2.5%
Compound: CC(C)c1ccc2c(c1)c(SC(C)(C)C)c(CC(C)(C)C(=O)O)n2Cc1ccc(Cl)cc1 [MK-886, reference compound]

Reference: paper PMC6148290, “Endogenous metabolites of vitamin E limit inflammation by targeting 5-lipoxygenase” (Nature Communications, 2018)
